Reference: ChEMBL document CHEMBL1158524, “Synthesis and SAR of novel imidazoles as potent and selective cannabinoid CB2 receptor antagonists with high binding efficiencies” (Bioorg Med Chem Lett, 2010)
pKi: −log10 of the molar value.

Sequences of proteins named here, by UniProt entry; tags and fusion partners are left off.
UniProt P21554, whole entry: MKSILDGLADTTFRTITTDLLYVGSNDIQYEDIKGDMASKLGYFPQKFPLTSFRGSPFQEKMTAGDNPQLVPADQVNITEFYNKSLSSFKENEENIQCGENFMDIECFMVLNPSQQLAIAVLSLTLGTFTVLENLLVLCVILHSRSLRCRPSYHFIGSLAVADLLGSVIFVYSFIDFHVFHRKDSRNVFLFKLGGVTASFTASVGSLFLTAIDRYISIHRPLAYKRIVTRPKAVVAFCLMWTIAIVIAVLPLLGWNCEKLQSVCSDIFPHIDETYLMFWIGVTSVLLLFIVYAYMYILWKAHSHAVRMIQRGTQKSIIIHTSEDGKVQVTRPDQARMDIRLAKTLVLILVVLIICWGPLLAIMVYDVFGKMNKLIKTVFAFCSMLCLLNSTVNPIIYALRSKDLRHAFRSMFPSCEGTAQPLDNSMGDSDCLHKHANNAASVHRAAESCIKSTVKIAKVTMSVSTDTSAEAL

Target: Cannabinoid receptor 1 (Homo sapiens, UniProt P21554)
Test: Displacement of [3H]CP-55940 from human CB1 receptor expressed in CHO cells
Type: cell-based
How it was run: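 CHO cells stably transfected with human CB1 receptor. Displacement of specific CP-55,940 binding, expressed as Ki ± SEM (nM). Values are the mean of at least three independent experiments.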

## Cc1ccc(Cn2nc(C(=O)N[C@@H]3C(C)(C)[C@@H]4CC[C@@]3(C)C4)cc2-c2ccc(Cl)c(C)c2)cc1 [SR-144528]
  pKi: < 6.00
